scFv variants of Ab-95 (light chain) against a SARS-CoV-2 spike peptide

Data: MIT Lincoln Laboratory AlphaSeq set, Engelhart et al. 2022, doi:10.1038/s41597-022-01779-4, as distributed in FLAb.

Target peptide (SARS-CoV-2 spike, HR2 region): PDVDLGDISGINAS

Each scFv is VH, three GGGGS repeats, VL, as in the parent Ab-95, and differs from it in the CDRs of the light chain only.
VH: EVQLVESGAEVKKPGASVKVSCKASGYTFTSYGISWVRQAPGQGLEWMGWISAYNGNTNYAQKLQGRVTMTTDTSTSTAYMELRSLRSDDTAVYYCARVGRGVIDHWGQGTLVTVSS
VL: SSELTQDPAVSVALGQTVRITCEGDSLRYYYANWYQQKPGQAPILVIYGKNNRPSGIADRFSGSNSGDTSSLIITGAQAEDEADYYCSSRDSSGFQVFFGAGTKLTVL

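Phage display of a naive human antibody library on the peptide gave the parent. In library AAYL52, one, two or three CDR residues were substituted; doubles and triples were drawn at random. AlphaSeq pools MATa yeast showing the antibodies with MATalpha yeast showing the peptide. After mating in shaken culture at 30 °C for 16 h, diploids were selected and their barcode pairs sequenced. A regression on co-assayed BCL2-family reference pairs converts the normalised counts of each replicate to an apparent Kd. Each pool was mated in three replicate cultures.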

Each variant is given by its three light chain CDRs, as the data file delimits them; those of the parent are EGDSLRYYYAN, GKNNRPS, SSRDSSGFQVF. Every variant below is changed at N52 of the VL (sequential numbering). Affinities are written as log10 Kd with Kd in nM; a lower number is a better binder. The mean shown is taken over the replicates in which the pair was detected. "nd" marks a missing value. The strain was present, yet no cells mated with the target were sequenced in any replicate, which points to weak or no binding. For reference, the parent read 2.31 as the reference entry and 2.25 as a member of this library. Nonspecific signal, from three strains lacking the peptide, appeared in 28% of pairings of library AAYL52, centred on 3.91 (5% of these signals below 2.90); values are not corrected for it.

Variant EGDSLRYYYAN | GKNCRPL | SSRDSSGFQAF gave 4.59 (2 of 3 replicates). Variant EGDSLRYYYAN | GKNWSPS | SSFDSSGFQVF gave 3.51 (2 of 3 replicates). With EGDSLRYYYAN | GKNSRPS | SSRVSSRFQVF the result was 2.83 (3 of 3 replicates). Variant EGDSLRYYYFN | GKNARWS | SSRDSSGFQVF showed 5.93 (1 of 3 replicates). Variant EGDSSRYYYAN | GKNHRPS | SSSDSSGFQVF showed 3.90 (3 of 3 replicates). Variant EGDSLRYYYAN | GKNQHPS | SSRDASGFQVF showed 2.23 (3 of 3 replicates).

For KGDSLRYYYAN | GKNLRPS | SSRDSSGCQVF, the assay gave 3.13 (3 of 3 replicates). For EGDSLRYYYAN | GKNKRPL | YSRDSSGFQVF, the assay gave 3.77 (3 of 3 replicates). With EGYSLRYYYAN | GKNWYPS | SSRDSSGFQVF the result was nd (0 of 3 replicates). For EGDSGRYYYAN | GKNKRPS | SSRDSRGFQVF, the assay gave 4.27 (2 of 3 replicates). For EVDSLRYYYAN | GKNHRPS | SSRDSCGFQVF, the assay gave 4.81 (2 of 3 replicates). For EGDSLRYYYIN | GKNKRPS | SSRDSSHFQVF, the assay gave 4.58 (2 of 3 replicates).

Variant EGDSLRYYYAN | GKNRRPS | SSRNSSGFAVF showed 3.77 (3 of 3 replicates). For EGDSLRYYYEN | GKKCRPS | SSRDSSGFQVF, the assay gave nd (0 of 3 replicates). For EGWSLRYYYAN | GKNQRPS | SSRDQSGFQVF, the assay gave 1.98 (3 of 3 replicates). Variant EGDSLRYYYAN | GKNARPS | SHRDFSGFQVF gave 2.49 (3 of 3 replicates). For EGDSLRYYYAN | GKNDRPS | SSRESDGFQVF, the assay gave 2.35 (3 of 3 replicates). For EGDSLRYYFAN | GKNMRPS | SSRDSHGFQVF, the assay gave 2.35 (3 of 3 replicates).

For EGDSLRYYSAN | GKNHRPS | SSRDSSGQQVF, the assay gave 3.33 (3 of 3 replicates). For EWDSLRYYYAN | GKNGRPS | SSRDSSGFQKF, the assay gave 2.81 (1 of 3 replicates). Variant EGDSLRYYYAN | GKNSRPS | SSRDSSGFQVY gave 2.37 (3 of 3 replicates). For EGDSLRYYYAN | GKNGRPS | HSRDSSGCQVF, the assay gave 4.00 (1 of 3 replicates). Variant EGDSLRYYYAN | YKNHRPS | SSRDSSGRQVF gave nd (0 of 3 replicates). With EGDSLRLYYAN | GVNFRPS | SSRDSSGFQVF the result was 3.26 (3 of 3 replicates).

For EGDSLRYYYAN | GKHARPS | HSRDSSGFQVF, the assay gave 4.44 (1 of 3 replicates). Variant EGDSLRYYYAN | GKNERPS | SSRDSVGFGVF gave 1.74 (3 of 3 replicates). Variant VGDCLRYYYAN | GKNIRPS | SSRDSSGFQVF showed 3.26 (3 of 3 replicates).

Top 4 of the variants detected in all replicates, tightest first:

| CDR-L1 | CDR-L2 | CDR-L3 | mean, log10 nM | replicates with signal |
|---|---|---|---|---|
| EGDSLRYYYAN | GKNERPS | SSRDSVGFGVF | 1.74 | 3/3 |
| EGWSLRYYYAN | GKNQRPS | SSRDQSGFQVF | 1.98 | 3/3 |
| EGDSLRYYYAN | GKNQHPS | SSRDASGFQVF | 2.23 | 3/3 |
| EGDSLRYYYAN | GKNDRPS | SSRESDGFQVF | 2.35 | 3/3 |